Measured values taken from patent US20230286995A1, “METABOLICALLY STABLE PYRIMIDINYL DIHYDROQUINOXALINONES AS TUBULIN POLYMERIZATION INHIBITORS” (UNIVERSITY OF TENNESSEE RESEARCH FOUNDATION, priority 2022, published 2023).
Like-named read-outs stand apart in the source and are kept apart here.

Columns and labels:
A375 = assay: Cytotoxicity assay (MTS, 72 h); settings: Homo sapiens;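 also: compounds tested from 0.1 nM up to 3 µM in four replicate wells, with absorbance read at 490 nm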
[1] = rats
A375/TxR cells = assay: Cell apoptosis analysis (Annexin V-FITC/PI); type: cell-based, human; settings: 2 nM, 24 h; control 9%
MDA-MB-231/VxR = assay: Cytotoxicity assay (MTS, 72 h); type: cell-based; settings: Homo sapiens, MDA-MB-231, 72 h, read-out: IC50 in Compound 17ya resistant MDA-MD-231/VxR cells

SMILES	IC50 (A375; A-375, read-out: IC50 (nM) Melanoma A375)	IC50 (A375; A-375, read-out: IC50 ± SEM (nM) A375)	tmax ([1]; Intravenous (2 mg/kg))	tmax ([1]; Oral (5 mg/kg))	percentage of apoptotic cells (A375/TxR cells)	IC50 (MDA-MB-231/VxR)
COc1ccc2c(c1)NC(=O)CN2c1nc(C)nc2c1CCC2 [Compound 5m, 7-methoxy-4-(2-methyl-6,7-dihydro-5H-cyclopenta[d]pyrimidin-4-yl)-3,4-dihydroquinoxalin-2(1H)-one]	1.4 ± 0.2 nM	1.1 ± 0.1 nM	5.00 min	22.5 min	30%	–
CCNc1nc(N2CC(=O)Nc3cc(OC)ccc32)c2ncccc2n1 [Compound 5t, 4-(2-(ethylamino)pyrido[3,2-d]pyrimidin-4-yl)-7-methoxy-3,4-dihydroquinoxalin-2(1H)-one]	–	–	–	–	33%	1.2 to 2.9 nM
